From patent US9629850B2, “Combination of MEK inhibitors and selective inhibitors of Aurora A kinase” (priority 2011, dated 2017)

Tests used:
[1] = tested on: NCI-H23 Non Small Cell Lung Carcinoma Xenografts; experiment: Anti-tumor activity in female nude mice bearing NCI-H23 xenografts
[2] = tested on: Panc-1 Human Pancreatic Carcinoma Xenografts; experiment: Antitumor activity in female nude mice bearing Panc-1 xenografts; conditions: MLN8273 30 mg/kg single agent; Day 5

For `COc1cc(Nc2ncc3c(n2)-c2ccc(Cl)cc2C(c2c(F)cccc2OC)=NC3)ccc1C(=O)[O-].O.[Na+]` [MLN8237], the weight loss ([1]; MLN8237 20 mg/kg PO QD for 21 days) was “no weight loss”, the weight loss ([1]; MLN8237 30 mg/kg PO for 21 days) was “no weight loss” and the “mean maximum body weight loss” value [2] was 0.2%.
